Laboratory results reported in PMC9354050.
Where two headings read alike, the source gives them in different places.

Protein sequences, listed by entry. Tags and fused reporters are not part of them.
UniProt Q9Y239, whole entry: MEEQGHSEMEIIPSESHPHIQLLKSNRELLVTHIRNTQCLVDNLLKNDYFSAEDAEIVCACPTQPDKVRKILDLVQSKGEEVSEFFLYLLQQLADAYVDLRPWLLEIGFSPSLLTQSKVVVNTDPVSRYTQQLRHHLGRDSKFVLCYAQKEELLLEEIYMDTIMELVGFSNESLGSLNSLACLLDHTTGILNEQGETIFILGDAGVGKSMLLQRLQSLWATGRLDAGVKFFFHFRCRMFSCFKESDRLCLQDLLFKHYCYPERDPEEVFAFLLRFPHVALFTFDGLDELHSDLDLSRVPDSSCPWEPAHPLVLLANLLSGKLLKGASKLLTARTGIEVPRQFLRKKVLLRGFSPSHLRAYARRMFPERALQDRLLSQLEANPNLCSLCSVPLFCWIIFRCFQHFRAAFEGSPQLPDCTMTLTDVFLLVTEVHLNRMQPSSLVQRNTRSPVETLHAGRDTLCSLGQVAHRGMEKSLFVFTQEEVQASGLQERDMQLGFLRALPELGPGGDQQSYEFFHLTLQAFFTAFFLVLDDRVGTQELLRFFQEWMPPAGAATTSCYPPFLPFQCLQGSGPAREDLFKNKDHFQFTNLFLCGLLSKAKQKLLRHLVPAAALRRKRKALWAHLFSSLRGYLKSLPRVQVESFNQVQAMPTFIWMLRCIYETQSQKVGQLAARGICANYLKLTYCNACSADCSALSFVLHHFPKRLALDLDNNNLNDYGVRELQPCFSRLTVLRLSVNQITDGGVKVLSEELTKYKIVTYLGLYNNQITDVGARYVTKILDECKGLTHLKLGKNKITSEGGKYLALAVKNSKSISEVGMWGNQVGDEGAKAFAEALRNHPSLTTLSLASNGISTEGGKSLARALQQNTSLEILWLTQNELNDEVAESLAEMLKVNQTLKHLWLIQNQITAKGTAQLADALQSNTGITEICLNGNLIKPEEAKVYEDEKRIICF

Biological target: Nucleotide-binding oligomerization domain 1 (NOD1) (Homo sapiens, UniProt Q9Y239)
Test: HEK-Blue NOD1 cell NF-κB/SEAP reporter assay (agonism)
Details: read-out: NOD1 EC50 ^b

| EC50 (tested form: bis-TFA salt) | EC50 (tested form: TFA salt) | SMILES |
| --- | --- | --- |
| 127 nM | – | CCCCCCCCCCCCN(CCCCCCCCCCCC)[C@H](CCC(=O)N[C@@H](C/C=C/[C@@H](N)C(=O)O)C(=O)O)C(=O)O (single isomer, unassigned) |
| – | 46 nM | CCCCCCCCCCCC(=O)N[C@H](CCC(=O)N[C@@H](/C=C/C[C@@H](N)C(=O)O)C(=O)O)C(=O)O |
| 162 nM | – | CCCCCCCCCCCCN(CCCCCCCCCCCC)[C@H](CCC(=O)N[C@@H](/C=C/C[C@@H](N)C(=O)O)C(=O)O)C(=O)O |
| – | 686 nM | CCCCCCCCCCCC(=O)N[C@H](CCC(=O)N[C@@H](C/C=C/[C@@H](N)C(=O)O)C(=O)O)C(=O)O |
